Source: US6936585B2, “Corticotropin releasing factor 2 receptor agonists” (priority 2002, dated 2005)

How the values were obtained:
CRF2R = target: T1, CRF2R (Homo sapiens, UniProt Q13324); experiment: CRF2R agonist activation (EC50 / Emax), called comparative CRF binding; type: cell-based; conditions: read-out: CRF2R Emax
T1 sequence (Q13324 1-411): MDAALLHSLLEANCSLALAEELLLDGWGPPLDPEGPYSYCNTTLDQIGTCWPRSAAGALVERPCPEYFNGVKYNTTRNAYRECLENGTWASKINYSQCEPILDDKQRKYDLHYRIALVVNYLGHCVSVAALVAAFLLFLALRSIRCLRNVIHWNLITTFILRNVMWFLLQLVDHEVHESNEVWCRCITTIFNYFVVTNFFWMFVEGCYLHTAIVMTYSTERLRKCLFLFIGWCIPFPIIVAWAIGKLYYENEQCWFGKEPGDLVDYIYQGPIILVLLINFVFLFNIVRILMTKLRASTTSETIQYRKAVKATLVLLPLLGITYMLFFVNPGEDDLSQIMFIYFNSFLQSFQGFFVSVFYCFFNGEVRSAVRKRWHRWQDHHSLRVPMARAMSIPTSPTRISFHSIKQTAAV
Description: (§1) The pharmacological activity and selectivity of the peptides of present invention can be determined using published test procedures. See, e.g, U.S. patent application Ser. No. 09/799,978 (now issued U.S. Pat. No. 6,670,140). Because CRF2R and CRF1R are homologous proteins, it is expected that a certain proportion of agonists for CRF2R will also function as agonists of CRF1R. As discussed above, activation of CRF1R induces activation of the HPA axis since increased corticosteroid production leads to skeletal muscle atrophy. In most cases in which an increase in muscle mass or function is desired, it is not desirable to activate the HPA axis.
(§2) Cell-based assays include the steps of contacting cells which express CRF1R or CRF2R with a peptide of the present invention or control and measuring activation of the CRFR by measuring the expression or activity of components of the CRFR signal transduction pathways.
(§3) For example, after contact with a peptide of the present invention, lysates of the cells can be prepared and assayed for induction of cAMP. cAMP is induced in response to Gαs activation. Because Gαs is activated by receptors other than CRFR and because a test peptide may be exerting its effect through CRFRs or by another mechanism, two control comparisons are relevant for determining whether the peptide increases levels of cAMP via activation of a CRFR. One control compares the cAMP level of cells contacted with the peptide and the cAMP level of cells contacted with a control compound (i.e., the vehicle in which the peptide is dissolved).
(§4) In one example, cAMP induction is measured with the use of DNA constructs containing the cAMP responsive element linked to any of a variety of reporter genes can be introduced into cells expressing CRFRs. Such reporter genes include, but are not limited to, chloramphenicol acetyltransferase (CAT), luciferase, glucuronide synthetase, growth hormone, fluorescent proteins (e.g., Green Fluorescent Protein), or alkaline phosphatase. Following exposure of the cells to the peptide, the level of reporter gene expression can be quantitated to determine the peptide's ability to increase cAMP levels and thus determine the peptide's ability to activate the CRFR.
(§5) In addition to using cells expressing full length CRFRs, cells can be engineered which express CRFRs containing the ligand binding domain of the receptor coupled to, or physically modified to contain, reporter elements or to interact with signaling proteins. For example, a wild type CRFR or CRFR fragment can be fused to a G-protein resulting in activation of the fused G-protein upon agonist binding to the CRFR portion of the fusion protein. […] In addition, alternative pathways for induction of the CRE reporter could be eliminated to reduce basal levels.

CRF1R = target: T2, CRF1R (Homo sapiens, UniProt P34998); experiment: CRF1R agonist activation (EC50 / Emax), called comparative CRF binding; type: cell-based; conditions: read-out: CRF1R Emax
T2 sequence (P34998 24-415): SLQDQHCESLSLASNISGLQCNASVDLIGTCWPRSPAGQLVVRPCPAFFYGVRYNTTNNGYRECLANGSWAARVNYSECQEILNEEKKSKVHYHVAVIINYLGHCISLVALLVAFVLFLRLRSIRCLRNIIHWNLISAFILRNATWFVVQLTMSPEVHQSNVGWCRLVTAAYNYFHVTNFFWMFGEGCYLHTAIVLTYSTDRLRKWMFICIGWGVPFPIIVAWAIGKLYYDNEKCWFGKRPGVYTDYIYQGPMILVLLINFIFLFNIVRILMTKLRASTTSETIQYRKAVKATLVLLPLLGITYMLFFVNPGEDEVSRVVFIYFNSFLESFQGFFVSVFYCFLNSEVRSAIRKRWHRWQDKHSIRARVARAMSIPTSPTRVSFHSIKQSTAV
Description: as §1, §2, §3, §4, §5

SMILES: CC[C@H](C)[C@H](NC(=O)[C@@H](NC(=O)[C@H](CC(=O)O)NC(=O)[C@H](CC(C)C)NC(=O)[C@H](CC(C)C)NC(=O)[C@H](CC(C)C)NC(=O)[C@H](CCCNC(=N)N)NC(=O)[C@H](CC(N)=O)NC(=O)[C@H](CC(N)=O)NC(=O)[C@H](C)NC(=O)[C@H](C)NC(=O)[C@H](CCC(N)=O)NC(=O)[C@H](CCC(N)=O)NC(=O)[C@H](CCCCN)NC(=O)[C@H](CCC(=O)O)NC(=O)[C@H](CCCCN)NC(=O)[C@H](CCC(=O)O)NC(=O)[C@H](CCC(N)=O)NC(=O)[C@H](CCCCN)NC(=O)[C@H](CCC(=O)O)NC(=O)[C@@H](NC(=O)[C@H](CCC(=O)O)NC(=O)[C@@H](NC(=O)[C@H](CCSC)NC(=O)[C@H](CCCCN)NC(=O)[C@H](CCCNC(=N)N)NC(=O)[C@H](CC(C)C)NC(=O)[C@H](CC(C)C)NC(=O)[C@H](Cc1ccc(O)cc1)NC(=O)[C@H](Cc1c[nH]c2ccccc12)NC(=O)[C@@H]1CCCN1C(=O)[C@H](CC(C)C)NC(=O)[C@H](CC(=O)O)NC(=O)[C@@H](NC(=O)[C@H](CO)NC(=O)[C@@H](NC(=O)[C@@H]1CCCN1C(=O)[C@@H]1CCCN1C(=O)CNC(=O)[C@@H]1CCC(=O)N1)[C@@H](C)CC)[C@@H](C)CC)[C@@H](C)CC)[C@@H](C)CC)[C@@H](C)O)C(N)=O [compound 55]
- Emax (CRF2R): 95%
- Emax (CRF1R): 92%

SMILES: CC[C@H](C)[C@H](NC(=O)[C@@H](NC(=O)[C@H](CC(=O)O)NC(=O)[C@H](CC(C)C)NC(=O)[C@H](CC(C)C)NC(=O)[C@H](CC(C)C)NC(=O)[C@H](CCCNC(=N)N)NC(=O)[C@H](CC(N)=O)NC(=O)[C@H](CC(N)=O)NC(=O)[C@H](C)NC(=O)[C@H](C)NC(=O)[C@H](CCC(N)=O)NC(=O)[C@H](CCC(N)=O)NC(=O)[C@H](CCCCN)NC(=O)[C@H](CCC(=O)O)NC(=O)[C@H](CCCCN)NC(=O)[C@H](CCC(=O)O)NC(=O)[C@H](CCC(N)=O)NC(=O)[C@H](CCCCN)NC(=O)[C@H](CCC(=O)O)NC(=O)[C@@H](NC(=O)[C@H](CCC(=O)O)NC(=O)[C@@H](NC(=O)[C@H](CCSC)NC(=O)[C@H](CCCCN)NC(=O)[C@H](CCCNC(=N)N)NC(=O)[C@H](CC(C)C)NC(=O)[C@H](CC(C)C)NC(=O)[C@@H]1CCCN1C(=O)[C@@H](NC(=O)[C@@H]1CCCN1C(=O)[C@H](CC(C)C)NC(=O)[C@H](CC(=O)O)NC(=O)[C@@H](NC(=O)[C@H](CO)NC(=O)[C@@H](NC(=O)[C@@H]1CCCN1C(=O)[C@@H]1CCCN1C(=O)CNC(=O)[C@@H]1CCC(=O)N1)[C@@H](C)CC)[C@@H](C)CC)[C@@H](C)O)[C@@H](C)CC)[C@@H](C)CC)[C@@H](C)O)C(N)=O [compound 52]
- Emax (CRF2R): 10%
- Emax (CRF1R): 13%

SMILES: CC[C@H](C)[C@H](NC(=O)[C@@H](NC(=O)[C@H](CC(=O)O)NC(=O)[C@H](CC(C)C)NC(=O)[C@H](CC(C)C)NC(=O)[C@H](CC(C)C)NC(=O)[C@H](CCCNC(=N)N)NC(=O)[C@H](CC(N)=O)NC(=O)[C@H](CC(N)=O)NC(=O)[C@H](C)NC(=O)[C@H](C)NC(=O)[C@H](CCC(N)=O)NC(=O)[C@H](CCC(N)=O)NC(=O)[C@H](CCCCN)NC(=O)[C@H](CCC(=O)O)NC(=O)[C@H](CCCCN)NC(=O)[C@H](CCC(=O)O)NC(=O)[C@H](CCC(N)=O)NC(=O)[C@H](CCCCN)NC(=O)[C@H](CCC(=O)O)NC(=O)[C@@H](NC(=O)[C@H](CCC(=O)O)NC(=O)[C@@H](NC(=O)[C@H](CCSC)NC(=O)[C@H](CCCCN)NC(=O)[C@H](CCCNC(=N)N)NC(=O)[C@H](CC(C)C)NC(=O)[C@H](CC(C)C)NC(=O)[C@H](CCCCN)NC(=O)[C@@H](NC(=O)[C@@H]1CCCN1C(=O)[C@H](CC(C)C)NC(=O)[C@H](CC(=O)O)NC(=O)[C@@H](NC(=O)[C@H](CO)NC(=O)[C@@H](NC(=O)[C@@H]1CCCN1C(=O)[C@@H]1CCCN1C(=O)CNC(=O)[C@@H]1CCC(=O)N1)[C@@H](C)CC)[C@@H](C)CC)[C@@H](C)O)[C@@H](C)CC)[C@@H](C)CC)[C@@H](C)O)C(N)=O [compound 45]
- Emax (CRF2R): 44%
- Emax (CRF1R): 7%

SMILES: CC[C@H](C)[C@H](NC(=O)[C@@H](NC(=O)[C@H](CC(=O)O)NC(=O)[C@H](CC(C)C)NC(=O)[C@H](CC(C)C)NC(=O)[C@H](CC(C)C)NC(=O)[C@H](CCCNC(=N)N)NC(=O)[C@H](CC(N)=O)NC(=O)[C@H](CC(N)=O)NC(=O)[C@H](C)NC(=O)[C@H](C)NC(=O)[C@H](CCC(N)=O)NC(=O)[C@H](CCC(N)=O)NC(=O)[C@H](CCCCN)NC(=O)[C@H](CCC(=O)O)NC(=O)[C@H](CCCCN)NC(=O)[C@H](CCC(=O)O)NC(=O)[C@H](CCC(N)=O)NC(=O)[C@H](CCCCN)NC(=O)[C@H](CCC(=O)O)NC(=O)[C@@H](NC(=O)[C@H](CCC(=O)O)NC(=O)[C@@H](NC(=O)[C@H](CCSC)NC(=O)[C@H](CCCCN)NC(=O)[C@H](CCCNC(=N)N)NC(=O)[C@H](CC(C)C)NC(=O)[C@H](CC(C)C)NC(=O)CNC(=O)[C@@H](NC(=O)[C@@H]1CCCN1C(=O)[C@H](CC(C)C)NC(=O)[C@H](CC(=O)O)NC(=O)[C@@H](NC(=O)[C@H](CO)NC(=O)[C@@H](NC(=O)[C@@H]1CCCN1C(=O)[C@@H]1CCCN1C(=O)CNC(=O)[C@@H]1CCC(=O)N1)[C@@H](C)CC)[C@@H](C)CC)[C@@H](C)CC)[C@@H](C)CC)[C@@H](C)CC)[C@@H](C)O)C(N)=O [compound 75]
- Emax (CRF2R): 52%
- Emax (CRF1R): 5%

SMILES: CC[C@H](C)[C@H](NC(=O)[C@@H](NC(=O)[C@H](CC(=O)O)NC(=O)[C@H](CC(C)C)NC(=O)[C@H](CC(C)C)NC(=O)[C@H](CC(C)C)NC(=O)[C@H](C)NC(=O)[C@H](CC(N)=O)NC(=O)[C@H](CC(N)=O)NC(=O)[C@H](C)NC(=O)[C@H](C)NC(=O)[C@H](CCC(N)=O)NC(=O)[C@H](CCC(N)=O)NC(=O)[C@H](CCCCN)NC(=O)[C@H](CCC(=O)O)NC(=O)[C@H](CCCCN)NC(=O)[C@H](CCC(=O)O)NC(=O)[C@H](CCC(N)=O)NC(=O)[C@H](CCCCN)NC(=O)[C@H](CCC(=O)O)NC(=O)[C@@H](NC(=O)[C@H](CCC(=O)O)NC(=O)[C@@H](NC(=O)[C@H](C)NC(=O)[C@H](CCCCN)NC(=O)[C@H](CCCNC(=N)N)NC(=O)[C@H](CC(C)C)NC(=O)[C@H](CC(C)C)NC(=O)[C@H](CCC(N)=O)NC(=O)[C@H](Cc1ccccc1)NC(=O)[C@@H]1CCCN1C(=O)[C@H](CC(C)C)NC(=O)[C@H](CC(=O)O)NC(=O)[C@@H](NC(=O)[C@H](CO)NC(=O)[C@@H](NC(=O)[C@@H]1CCCN1C(=O)[C@@H]1CCCN1C(=O)CNC(=O)[C@@H]1CCC(=O)N1)[C@@H](C)CC)[C@@H](C)CC)[C@@H](C)CC)[C@@H](C)CC)[C@@H](C)O)C(N)=O [compound 365]
- Emax (CRF2R): 94%
- Emax (CRF1R): 21%
